Data from patent US20150376286A1 (Amgen, published 2015).
Changes are numbered by the printed parent chain.

Chains of the proteins cited; added tags and fusions are not shown. Chains listed by the source or under a name are the forms on record and can include a tag or linker. Residues count along the entry.
UniProt O60896, 24-148: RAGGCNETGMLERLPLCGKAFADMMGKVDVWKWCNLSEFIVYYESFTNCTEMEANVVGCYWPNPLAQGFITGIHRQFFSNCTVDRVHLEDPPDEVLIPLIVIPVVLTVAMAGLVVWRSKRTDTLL
UniProt Q63118, 24-464 limits assumed, chain 1 of 2: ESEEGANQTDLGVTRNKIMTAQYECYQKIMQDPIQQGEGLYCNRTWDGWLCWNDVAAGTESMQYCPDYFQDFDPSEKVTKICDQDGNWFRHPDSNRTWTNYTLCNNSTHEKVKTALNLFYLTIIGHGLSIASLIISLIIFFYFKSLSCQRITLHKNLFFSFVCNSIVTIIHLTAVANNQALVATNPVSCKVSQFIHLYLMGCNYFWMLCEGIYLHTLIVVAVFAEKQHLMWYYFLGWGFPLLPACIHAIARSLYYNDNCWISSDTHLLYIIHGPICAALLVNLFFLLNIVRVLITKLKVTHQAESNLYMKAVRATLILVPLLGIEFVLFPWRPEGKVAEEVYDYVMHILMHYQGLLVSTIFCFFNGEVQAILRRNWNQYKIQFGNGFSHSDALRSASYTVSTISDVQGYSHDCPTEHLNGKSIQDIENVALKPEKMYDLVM
UniProt Q9JJ74, 27-148 limits assumed, chain 2 of 2: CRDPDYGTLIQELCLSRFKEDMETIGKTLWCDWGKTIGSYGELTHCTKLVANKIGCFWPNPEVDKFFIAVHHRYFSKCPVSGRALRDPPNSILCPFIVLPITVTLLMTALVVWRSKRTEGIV
UniProt P30988, 25-474, chain 1 of 2: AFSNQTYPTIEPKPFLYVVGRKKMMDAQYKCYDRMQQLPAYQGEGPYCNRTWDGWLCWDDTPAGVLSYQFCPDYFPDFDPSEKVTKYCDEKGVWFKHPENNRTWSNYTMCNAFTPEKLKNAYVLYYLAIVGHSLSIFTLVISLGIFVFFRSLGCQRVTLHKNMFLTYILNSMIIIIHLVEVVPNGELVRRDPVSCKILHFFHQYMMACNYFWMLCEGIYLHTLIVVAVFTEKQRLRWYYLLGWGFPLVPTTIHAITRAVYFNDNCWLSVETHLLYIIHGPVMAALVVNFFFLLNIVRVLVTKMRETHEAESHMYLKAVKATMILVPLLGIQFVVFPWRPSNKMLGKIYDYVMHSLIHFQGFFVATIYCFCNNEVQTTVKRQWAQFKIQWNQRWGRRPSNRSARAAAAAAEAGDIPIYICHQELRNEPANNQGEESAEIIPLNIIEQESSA
UniProt O60894, 27-148 limits assumed: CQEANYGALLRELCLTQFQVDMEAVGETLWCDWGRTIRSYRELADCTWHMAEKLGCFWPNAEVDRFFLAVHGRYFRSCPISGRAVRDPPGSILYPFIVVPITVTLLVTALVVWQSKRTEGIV
UniProt O60895, 43-175: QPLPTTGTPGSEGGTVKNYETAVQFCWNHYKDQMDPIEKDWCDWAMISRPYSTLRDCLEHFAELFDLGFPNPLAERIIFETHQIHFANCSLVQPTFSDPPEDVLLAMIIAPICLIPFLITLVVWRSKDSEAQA
human amylin AMY1 receptor (hCTR + hRAMP1), one chain, as listed by the source, chain 2 of 2: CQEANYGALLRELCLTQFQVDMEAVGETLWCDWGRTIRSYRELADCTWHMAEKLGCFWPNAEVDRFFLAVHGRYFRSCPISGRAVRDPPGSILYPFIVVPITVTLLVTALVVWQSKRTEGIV

T1: cynomolgus CGRP receptor (cynoCRLR + cynoRAMP1) (cynomolgus monkey)
T1 chain 1: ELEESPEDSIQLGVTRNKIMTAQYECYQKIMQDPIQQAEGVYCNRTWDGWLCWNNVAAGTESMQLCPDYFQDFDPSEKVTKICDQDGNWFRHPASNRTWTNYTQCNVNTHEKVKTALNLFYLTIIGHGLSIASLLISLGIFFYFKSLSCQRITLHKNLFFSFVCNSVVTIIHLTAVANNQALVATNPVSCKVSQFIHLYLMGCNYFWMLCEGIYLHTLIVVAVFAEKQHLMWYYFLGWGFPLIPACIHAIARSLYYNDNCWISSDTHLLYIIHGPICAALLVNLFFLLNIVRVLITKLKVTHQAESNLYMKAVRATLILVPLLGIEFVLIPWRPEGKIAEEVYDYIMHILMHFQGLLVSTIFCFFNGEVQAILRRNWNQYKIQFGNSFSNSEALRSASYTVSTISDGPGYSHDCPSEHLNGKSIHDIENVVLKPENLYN
T1 chain 2: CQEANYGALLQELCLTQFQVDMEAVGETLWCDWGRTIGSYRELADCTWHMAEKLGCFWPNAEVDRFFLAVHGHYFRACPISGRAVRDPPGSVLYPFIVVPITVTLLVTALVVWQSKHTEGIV

B1: 11D11 (antibody, human IgG2, lambda, V domains shown)
VH: EVQLVESGGGLVKPGGSLRLSCAASGFTFGNAWMSWVRQAPGKGLEWVGRIKSKTDGGTTDYAAPVKGRFTISRDDSKNTLYLQMNSLKTEDTAVYFCTTDRTGYSISWSSYYYYYGMDVWGQGTTVTVSS
VL: QSVLTQPPSASGTPGQRVTISCSGSSSNIGSNYVYWYQQLPGAAPKLLIFRNNQRPSGVPDRFSGSKSGTSASLAISGLRSEDEADYYCAAWDDSLSGWVFGGGTKLTVLG
notes: also called 11D11.1
B2: 11H9 (antibody, human IgG2, lambda, V domains shown)
VH: B1 VH with F97Y
VL: B1 VL
notes: also called 11H9.1

Columns and labels:
[1] = target: T1, cynomolgus CGRP receptor (cynoCRLR + …); assay: cell-based or functional assay
[2] = target: human adrenomedullin receptor 2 (hCRLR + hRAMP3) (human, UniProt O60896, in part); assay: cell-based or functional assay
rat CGRP receptor = rat CGRP receptor (rat, UniProt Q63118; Q9JJ74, in part); assay: cell-based or functional assay
[3] = target: human amylin AMY1 receptor (hCTR + hRAMP1) (human, UniProt P30988); assay: cell-based or functional assay
[4] = target: T2, human CGRP receptor (CRLR + RAMP1) (human, UniProt Q16602; O60894, in part); assay: cell-based or functional assay
[5] = target: human adrenomedullin receptor 1 (hCRLR + hRAMP2) (human, UniProt O60895, in part); assay: cell-based or functional assay
[6] = target: T2, human CGRP receptor (CRLR + RAMP1); assay: 125I-CGRP competition binding, HTB-10 cell membranes
Method: The plates were incubated at room temperature for 2 hours with shaking at 60 rpm, and then the contents of each well were filtered over 0.5% polyethyleneimine (PEI)-treated (for at least one hour) GF/C 96-well filter plates. The GF/C filter plates were washed six times with ice-cold 50 mM Tris, pH 7.5 and dried in an oven at 55° C. for 1 hour. The bottoms of the GF/C plates were then sealed. 40 μl Microscint™ 20 was added to each well, the tops of the GF/C plates were sealed with TopSeal™-A (a press-on adhesive sealing film), and the GF/C plates were counted with TopCount NXT (Packard). The data were analyzed using Prizm (GraphPad Software Inc.)

Binder | cAMP assay IC50 [1] [nM] | cAMP assay IC50 [2] [nM] | cAMP assay IC50 (rat CGRP receptor) [nM] | cAMP assay IC50 [3] [nM] | cAMP assay IC50 [4] [nM] | cAMP assay IC50 [5] [nM] | Ki [6] [nM]
B1 | 3.85 | > 1000 | > 1000 | > 1000 | 4.93 | > 1000 | 0.044
B2 | 5.07 | > 1000 | > 1000 | > 1000 | 4.56 | > 1000 | 0.057
